PubChem BioAssay AID493008 (The Scripps Research Institute Molecular Screening Center, 2010)
Only a part is listed here, and it is no random draw. Some of these compounds have results that are not shown, active ones among them. Active and inactive are the calls of the source.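 How the source made its calls: active means activation above the mean over all tested compounds plus 3 SD (cut at about 30% in these data); inactive means the rest.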

molecular target: Troponin I, cardiac muscle (Homo sapiens) + Troponin T, cardiac muscle (Homo sapiens) + Troponin C, slow skeletal and cardiac muscles (Homo sapiens) (UniProt P19429+P45379+P63316); assay: cardiac RTF calcium sensitivity activators, primary screen, biochemical, IANBD-TnC fluorescence, EC20 calcium (AID 493008); details: IANBD-labeled TnC RTF fluorescence at EC20 calcium; at 7.2 µM; active compounds read high; 0% EC20 calcium, 100% full calcium;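 further: rise in fluorescence read as greater calcium sensitivity of cardiac thin filaments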

Row | SMILES | activation
1 | CN(C)C1(CNC(=O)c2ccc(Br)cc2)CCCCC1 | inactive: -3.7%
2 | COc1cc(C(=O)NCC2(N(C)C)CCCCC2)c([N+](=O)[O-])cc1OC | inactive: -4.41%
3 | COc1ccc(Cl)cc1C(=O)NCC1(N(C)C)CCCCC1 | inactive: -2.23%
4 | COc1cccc(C(=O)NCC2(N3CCCCC3)CCCCC2)c1 | inactive: -5%
5 | O=C(NCC1(N2CCCCC2)CCCCC1)c1cccc(Cl)c1 | inactive: -2.85%
6 | O=C(OC1CN2CCC1CC2)C(CO)(c1ccccc1)c1ccccc1 (stereo not given) | inactive: -4.11%
7 | COc1ccc(Br)c(C(=O)NCC2(N3CCCCC3)CCCCC2)c1 | inactive: 3.87%
8 | CN(C)c1cccc(C(=O)NCC2(N(C)C)CCCCC2)c1 | inactive: -2.33%
9 | O=C(OCCN1CCCC1)C(O)(c1ccccc1)c1ccccc1 | inactive: 4.23%
10 | CC(C)Oc1ccc(C(=O)NCC2(N(C)C)CCCCC2)cc1 | inactive: 3.95%
11 | O=C(NCC1(N2CCCCC2)CCCCC1)c1cc([N+](=O)[O-])ccc1Cl | inactive: 5.07%
12 | CN1[C@@H]2CC[C@H]1CC(OC(=O)C(O)(c1ccccc1)c1ccccc1)C2 (stereo not given in full) | inactive: 6.09%
13 | CC(C)N1C(=O)CC2(CCN(CCOC(=O)C(O)(c3ccccc3)c3ccccc3)CC2)C1=O | inactive: -0.69%
14 | COc1cc(SC)ccc1C(=O)NCC1(N(C)C)CCCCC1 | inactive: 0.72%
15 | CCN(CC)CC(C)C(C)OC(=O)C(O)(c1ccccc1)c1ccccc1 (stereo not given) | inactive: -1.24%
16 | Cc1ccc(C(=O)NCC2(N3CCCCC3)CCCCC2)cc1 | inactive: -4.53%
17 | CN(C)C1CCCC1OC(=O)C(O)(c1ccccc1)c1ccccc1 (stereo not given) | inactive: 3.8%
18 | CN(C)c1ccc(C(=O)NCC2(N(C)C)CCCCC2)cc1 | inactive: -8.42%
19 | Cc1ccccc1C(=O)NCC1(N2CCCCC2)CCCCC1 | inactive: -3.87%
20 | O=C(NCC1(N2CCCCC2)CCCCC1)c1cc(F)c(F)cc1Cl | inactive: -1.01%
21 | C=CCN1CCN(CCOC(=O)C(O)(c2ccccc2)c2ccccc2)CC1 | inactive: 6.53%
22 | O=C(NCC1(N2CCCCC2)CCCCC1)c1cccc(Br)c1 | inactive: -7.28%
23 | Cc1cc(C(=O)NCC2(N3CCCCC3)CCCCC2)ccc1[N+](=O)[O-] | inactive: -8.04%
24 | CCN1CCCC(OC(=O)C2(O)c3ccccc3C=Cc3ccccc32)C1 (stereo not given) | inactive: -8.94%
25 | COc1ccc(C(=O)NCC2(N(C)C)CCCCC2)cc1 | inactive: 9.38%
